Measured values published in US8895585B2, “Nicotinamide derivative or salt thereof” (FUJIFILM Corporation, priority 2010, dated 2014).

These compounds were tested against glutathione S-transferase (GST)-fused full-length human Syk protein (Homo sapiens, UniProt P43405) (assay: Syk enzyme assay). Details: read-out: IC50 of Syk-inhibitory activity, Test Example 1.
Description: A glutathione S-transferase (GST)-fused full-length human Syk protein (Carna Biosciences), which had been generated using a Baculovirus expression system, was used in the Syk enzyme assay.
15 μl of a reaction solution (1.2 ng Syk, 20 mM HEPES, 10 mM MgCl2, 50 mM NaCl, 2 mM DTT, 0.05% BSA, pH 7.0) containing a Syk protein and a predetermined concentration of a test compound was shaken for 2 minutes, and it was then left at rest at room temperature for 13 minutes. Thereafter, 5 μl of Biotin-EDPDYEWPSA-NH2 (final concentration: 0.4 μM) serving as a substrate peptide and 5 μl of ATP (final concentration: 27 μM) were added to the reaction solution, and the obtained mixture was then shaken for 2 minutes. The reaction solution was further left at rest at room temperature for 40 minutes, so as to carry out an enzyme reaction.
Thereafter, 50 μl of a reaction termination solution [5 μg/ml Streptavidin, 0.18 μg/ml PT66-K, 30 mM HEPES (pH 7.0), 150 mM KF, 75 mM EDTA, 0.15% BSA, 0.075% Tween20], which contained Streptavidin-Xlent (Cisbio) and Mab PT66-K (Cisbio), was added to the reaction solution to terminate the enzyme reaction. At the same time, the reaction solution was left at rest at room temperature for 1 hour, so as to carry out an antigen-antibody reaction. Thereafter, using EnVision (PerkinElmer), the time-resolved fluorescence was measured at 615 nm and 665 nm, so that the phosphorylation of the substrate peptide was measured.
In addition, the following are standards for evaluating IC50 of Syk-inhibitory activity used in Table 21. • A: Up to 10 nM • B: 10 to 50 nM • C: 50 to 100 nM • D: 100 to 1000 nM The set of numbers (XYZ-xyz) given in each Example number column indicates the corresponding Example number (Example XYZ-xyz) in Table 21.

Q: For `CC(=O)NCCC[C@@H](Nc1nc(Nc2cnc(C)c(C)c2)c(C(N)=O)cc1F)[C@H](C)N`, which IC50 is on record?
A: 50 to 100 nM

Q: `CC(=O)Nc1cncc(Nc2nc(N[C@@H]3CCCC[C@@H]3N)c(F)cc2C(N)=O)c1` was tested. Which IC50 did it give?
A: 10 to 50 nM

Q: With `CC(=O)c1cccc(Nc2nc(NCCN)c(F)cc2C(N)=O)c1` as the compound, how does the IC50 read?
A: 10 to 50 nM

Q: How did the IC50 turn out when `CC(=O)c1ccccc1Nc1nc(N[C@@H]2CCCC[C@@H]2N)c(F)cc1C(N)=O` was run?
A: 100 to 1000 nM

Q: For `CN1CCN(C(=O)c2cccc(Nc3nc(NCCN)c(F)cc3C(N)=O)c2)CC1`, which IC50 is on record?
A: 100 to 1000 nM

Q: For `CN1CCN(c2cc(Nc3nc(N[C@@H]4CCCC[C@@H]4N)c(F)cc3C(N)=O)ccn2)CC1`, which IC50 is on record?
A: < 10 nM

Q: `CNC(=O)c1cccc(Nc2nc(NCCN)c(F)cc2C(N)=O)c1` was tested. Which IC50 did it give?
A: 100 to 1000 nM

Q: How did the IC50 turn out when `COc1cc(Nc2nc(NCCCCN)c(F)cc2C(N)=O)cc(OC)c1` was run?
A: 100 to 1000 nM

Q: How did the IC50 turn out when `COc1cc(Nc2nc(N[C@H](C(N)=O)C(C)(C)C)c(F)cc2C(N)=O)cc(OC)c1` was run?
A: 100 to 1000 nM

Q: Which IC50 does the source give for `COc1cc(Nc2nc(N[C@H]3CCCC[C@H]3N)c(F)cc2C(N)=O)cc(OC)c1` here?
A: 100 to 1000 nM

Q: How did the IC50 turn out when `CS(=O)(=O)c1cccc(Nc2nc(NCCN)c(F)cc2C(N)=O)c1` was run?
A: 100 to 1000 nM

Q: `Cc1ccc(-c2cccc(Nc3nc(NCCN)c(F)cc3C(N)=O)c2)cc1` was tested. Which IC50 did it give?
A: 10 to 50 nM

Q: How did the IC50 turn out when `Cc1ccc(Nc2nc(NCCN)c(F)cc2C(N)=O)cc1` was run?
A: 100 to 1000 nM

Q: `Cc1nc2cc(Nc3nc(NCCN)c(F)cc3C(N)=O)ccc2o1` was tested. Which IC50 did it give?
A: 100 to 1000 nM

Q: `Cn1cc2ccc(Nc3nc(NCCN)c(F)cc3C(N)=O)cc2n1` was tested. Which IC50 did it give?
A: 100 to 1000 nM

Q: For `N#Cc1cccc(Nc2nc(NCCN)c(F)cc2C(N)=O)c1`, which IC50 is on record?
A: 100 to 1000 nM

Q: With `NC(=O)c1cc(F)c(NC2CCCC[C@@H]2N)nc1Nc1ccc2c(c1)CCC2` (stereo partly drawn) as the compound, how does the IC50 read?
A: < 10 nM

Q: With `NC(=O)c1cc(F)c(N[C@@H]2CCCC[C@@H]2N)nc1Nc1ccc(N2CCOCC2)nc1` as the compound, how does the IC50 read?
A: 10 to 50 nM

Q: Which IC50 does the source give for `NC(=O)c1cc(F)c(N[C@@H]2CCCC[C@@H]2N)nc1Nc1ccc(NCCN2CCCC2)nc1` here?
A: 10 to 50 nM

Q: For `NC(=O)c1cc(F)c(N[C@@H]2CCCC[C@@H]2N)nc1Nc1ccc2cn(CCN3CCCC3)nc2c1`, which IC50 is on record?
A: < 10 nM

Q: `NC(=O)c1cc(F)c(N[C@@H]2CCCC[C@@H]2N)nc1Nc1ccc2cn(CCN3CCOCC3)nc2c1` was tested. Which IC50 did it give?
A: < 10 nM

Q: For `NC(=O)c1cc(F)c(N[C@@H]2CCCC[C@@H]2N)nc1Nc1ccc2cnn(CCN3CCCC3)c2c1`, which IC50 is on record?
A: < 10 nM

Q: For `NC(=O)c1cc(F)c(N[C@@H]2CCCC[C@@H]2N)nc1Nc1ccc2cnn(CCN3CCOCC3)c2c1`, which IC50 is on record?
A: < 10 nM

Q: For `NC(=O)c1cc(F)c(N[C@@H]2CCCC[C@@H]2N)nc1Nc1ccc2nn(CCN3CCOCC3)cc2c1`, which IC50 is on record?
A: < 10 nM

Q: Which IC50 does the source give for `NC(=O)c1cc(F)c(N[C@@H]2CCCC[C@@H]2N)nc1Nc1ccnc(N2CCCCC2)c1` here?
A: < 10 nM

Q: `NC(=O)c1cc(F)c(N[C@@H]2CCCC[C@@H]2N)nc1Nc1cncc(N)c1` was tested. Which IC50 did it give?
A: < 10 nM

Q: How did the IC50 turn out when `NC(=O)c1cc(F)c(N[C@@H]2CCCC[C@@H]2N)nc1Nc1cncc(NC=O)c1` was run?
A: < 10 nM

Q: How did the IC50 turn out when `NC(=O)c1cc(F)c(N[C@@H]2CCCC[C@@H]2N)nc1Nc1cncc(NS(=O)(=O)c2ccccc2)c1` was run?
A: 100 to 1000 nM

Q: How did the IC50 turn out when `NC(=O)c1cc(F)c(N[C@@H]2CCCC[C@@H]2N)nc1Nc1cnccc1-c1ccccc1` was run?
A: 100 to 1000 nM

Q: `NC(=O)c1cc(F)c(N[C@@H]2CCNC2)nc1Nc1ccc2ncccc2c1` was tested. Which IC50 did it give?
A: 50 to 100 nM

Q: For `NC(=O)c1cc(F)c(N[C@H](C(N)=O)c2ccccc2)nc1Nc1ccc2ncsc2c1`, which IC50 is on record?
A: 100 to 1000 nM

Q: `NC(=O)c1cc(F)c(N[C@H]2CCNC2)nc1Nc1ccc2ncccc2c1` was tested. Which IC50 did it give?
A: 100 to 1000 nM

Q: With `NCCNc1nc(Nc2cc(C(F)(F)F)cc(C(F)(F)F)c2)c(C(N)=O)cc1F` as the compound, how does the IC50 read?
A: 100 to 1000 nM

Q: How did the IC50 turn out when `NCCNc1nc(Nc2ccc(Cl)c(Cl)c2)c(C(N)=O)cc1F` was run?
A: 100 to 1000 nM

Q: `NCCNc1nc(Nc2ccc(F)c(Cl)c2)c(C(N)=O)cc1F` was tested. Which IC50 did it give?
A: 100 to 1000 nM

Q: For `NCCNc1nc(Nc2ccc3cn[nH]c3c2)c(C(N)=O)cc1F`, which IC50 is on record?
A: 50 to 100 nM

Q: Which IC50 does the source give for `NCCNc1nc(Nc2cccc(-c3ccccc3)c2)c(C(N)=O)cc1F` here?
A: 50 to 100 nM

Q: With `NCCNc1nc(Nc2cccc(C(=O)N3CCOCC3)c2)c(C(N)=O)cc1F` as the compound, how does the IC50 read?
A: 100 to 1000 nM

Q: With `NCCNc1nc(Nc2cccc(C(F)(F)F)c2)c(C(N)=O)cc1F` as the compound, how does the IC50 read?
A: 100 to 1000 nM

Q: For `NCCNc1nc(Nc2cccc(C(N)=O)c2)c(C(N)=O)cc1F`, which IC50 is on record?
A: 50 to 100 nM

Q: For `NCCNc1nc(Nc2cccc(CO)c2)c(C(N)=O)cc1F`, which IC50 is on record?
A: 100 to 1000 nM

Q: For `NCCNc1nc(Nc2cccc3ccccc23)c(C(N)=O)cc1F`, which IC50 is on record?
A: 50 to 100 nM

Q: Which IC50 does the source give for `NCCNc1nc(Nc2cccnc2)c(C(N)=O)cc1F` here?
A: 100 to 1000 nM

Q: Which IC50 does the source give for `NC(=O)c1cc(F)c(N[C@@H]2CCCC[C@@H]2N)nc1Nc1ccc(OCCN2CCCC2)cc1` (relative stereo) here?
A: 10 to 50 nM

Q: Which IC50 does the source give for `NC(=O)c1cc(F)c(N[C@@H]2CCCC[C@@H]2N)nc1Nc1ccc2ccncc2c1` (relative stereo) here?
A: < 10 nM

Q: Which IC50 does the source give for `NC(=O)c1cc(F)c(N[C@@H]2CCCC[C@@H]2N)nc1Nc1ccc2nn(CC3CC3)cc2c1` (relative stereo) here?
A: 10 to 50 nM

Q: With `NC(=O)c1cc(F)c(N[C@@H]2CCCC[C@@H]2N)nc1Nc1ccc2nn(Cc3ccccc3)cc2c1` (relative stereo) as the compound, how does the IC50 read?
A: 10 to 50 nM

Q: Which IC50 does the source give for `NC(=O)c1cc(F)c(N[C@@H]2CCCC[C@@H]2N)nc1Nc1ccc2nsnc2c1` (relative stereo) here?
A: < 10 nM

Q: With `NC(=O)c1cc(F)c(N[C@@H]2CCCC[C@@H]2N)nc1Nc1cccc(-c2ccccc2)c1` (relative stereo) as the compound, how does the IC50 read?
A: < 10 nM

Q: How did the IC50 turn out when `NC(=O)c1cc(F)c(N[C@@H]2CCCC[C@@H]2N)nc1Nc1cccc(OCCN2CCCC2)c1` (relative stereo) was run?
A: < 10 nM

Q: How did the IC50 turn out when `NC(=O)c1cc(F)c(N[C@@H]2CCCC[C@@H]2N)nc1Nc1cccc2cccnc12` (relative stereo) was run?
A: 10 to 50 nM

Q: For `NC(=O)c1cc(F)c(N[C@@H]2CCCC[C@@H]2N)nc1Nc1ccnc(C(=O)O)c1` (relative stereo), which IC50 is on record?
A: 50 to 100 nM

Q: For `NC(=O)c1cc(F)c(N[C@@H]2CCCC[C@@H]2N)nc1Nc1ccnc(N2CCCC2)c1` (relative stereo), which IC50 is on record?
A: 10 to 50 nM

Q: For `NC(=O)c1cc(F)c(N[C@@H]2CCCC[C@@H]2N)nc1Nc1ccnc2c1ccn2CC(=O)O` (relative stereo), which IC50 is on record?
A: 10 to 50 nM

Q: `NC(=O)c1cc(F)c(N[C@@H]2CCCC[C@@H]2N)nc1Nc1cnc2ccccn12` (relative stereo) was tested. Which IC50 did it give?
A: 50 to 100 nM

Q: `NC(=O)c1cc(F)c(N[C@@H]2CCCC[C@@H]2N)nc1Nc1cncc(NC(=O)c2ccccc2)c1` (relative stereo) was tested. Which IC50 did it give?
A: < 10 nM

Same assay, conditions: read-out: IC50 of Syk-inhibitory activity, Test Example 1, tested form: 2HCl

Q: Which IC50 does the source give for `NC(=O)c1cc(F)c(N[C@@H]2CCCC[C@@H]2N)nc1Nc1ccnc(OCCN2CCCC2)c1` (relative stereo) here?
A: 10 to 50 nM

Same assay, conditions: read-out: IC50 of Syk-inhibitory activity, Test Example 1, tested form: HCl

Q: How did the IC50 turn out when `COc1cc(Nc2nc(NC3CCC(N)CC3)c(F)cc2C(N)=O)cc(OC)c1` (stereo not drawn) was run?
A: 100 to 1000 nM

Q: With `COc1cc(Nc2nc(N[C@@H]3CCCC[C@H]3N)c(F)cc2C(N)=O)cc(OC)c1` as the compound, how does the IC50 read?
A: 50 to 100 nM

Q: How did the IC50 turn out when `Cc1ccc(C(=O)Nc2cncc(Nc3nc(N[C@@H]4CCCC[C@@H]4N)c(F)cc3C(N)=O)c2)cc1` (relative stereo) was run?
A: 10 to 50 nM

Q: For `NC(=O)c1cc(F)c(N[C@@H]2CCCC[C@@H]2N)nc1Nc1cncc(NC(=O)c2ccc(C(F)(F)F)cc2)c1` (relative stereo), which IC50 is on record?
A: 50 to 100 nM

Q: `NC(=O)c1cc(F)c(N[C@@H]2CCCC[C@@H]2N)nc1Nc1cncc(NC(=O)c2ccc(F)cc2)c1` (relative stereo) was tested. Which IC50 did it give?
A: 10 to 50 nM

Q: How did the IC50 turn out when `NC(=O)c1cc(F)c(N[C@@H]2CCCC[C@@H]2N)nc1Nc1cncc(NC(=O)c2ccccc2F)c1` (relative stereo) was run?
A: 10 to 50 nM

Q: With `NC(=O)c1cc(F)c(N[C@H]2CCCC[C@H]2N)nc1Nc1ccc(Cl)c(Cl)c1` (relative stereo) as the compound, how does the IC50 read?
A: < 10 nM

Same assay, conditions: read-out: IC50 of Syk-inhibitory activity, Test Example 1, tested form: free

Q: Which IC50 does the source give for `CC(C)C[C@@H](Nc1nc(Nc2ccc3ncccc3c2)c(C(N)=O)cc1F)c1cnn[nH]1` here?
A: 100 to 1000 nM

Same assay, conditions: read-out: IC50 of Syk-inhibitory activity, Test Example 1, tested form: hydrochloride

Q: With `CCCCOc1cc(Nc2nc(N[C@@H]3CCCC[C@@H]3N)c(F)cc2C(N)=O)ccn1` as the compound, how does the IC50 read?
A: < 10 nM
